Test results reported in BindingDB's records for doi:10.1016/j.bioorg.2012.08.003 (North-West University, 2012).

Amino acid sequences for entries named in this document (tags omitted).
UniProt P27338, whole entry: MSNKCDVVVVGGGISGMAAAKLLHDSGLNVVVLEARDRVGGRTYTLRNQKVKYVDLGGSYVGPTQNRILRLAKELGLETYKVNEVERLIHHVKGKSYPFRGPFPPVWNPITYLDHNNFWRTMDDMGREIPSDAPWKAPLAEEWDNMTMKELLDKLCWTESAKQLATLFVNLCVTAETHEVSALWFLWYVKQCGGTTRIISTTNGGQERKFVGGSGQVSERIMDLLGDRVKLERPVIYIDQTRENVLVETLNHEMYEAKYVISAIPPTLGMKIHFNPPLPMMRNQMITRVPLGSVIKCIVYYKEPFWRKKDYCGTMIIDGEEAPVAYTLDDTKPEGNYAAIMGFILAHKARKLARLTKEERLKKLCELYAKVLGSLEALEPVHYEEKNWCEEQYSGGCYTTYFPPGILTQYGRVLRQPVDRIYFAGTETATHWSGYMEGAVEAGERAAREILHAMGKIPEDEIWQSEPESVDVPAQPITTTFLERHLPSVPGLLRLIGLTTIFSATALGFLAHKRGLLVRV

These molecules were tested against Amine oxidase [flavin-containing] B (Homo sapiens, UniProt P27338) (assay: Inhibition Assay). Details: pH 7.4; 37 °C.
From the text: Inhibition studies using recombinant human MAO-A and MAO-B that were obtained from commercial sources (Sigma-Aldrich).

IC50 [nM] | SMILES
17 | O=c1ccoc2cc(OCc3cccc(Cl)c3)ccc12 [C7-substituted chromone derivative, 3d]
25 | O=c1ccoc2cc(OCc3ccc(F)cc3)ccc12 [C7-substituted chromone derivative, 3i]
8 | O=c1ccoc2cc(OCc3ccc(C(F)(F)F)cc3)ccc12 [C7-substituted chromone derivative, 3n]
